Reference: paper PMC6880876

Target: end-binding protein 3 (EB3), full-length, recombinant (UniProt Q9UPY8)
Assay: ELISA

With “full-length tau V337M (0N4R) (natural protein)” the Kd was 5.6 nM.
